Test results from PubChem BioAssay AID720553 (National Center for Advancing Translational Sciences (NCATS), 2013).
The list shows a part of the results, in another mix than the full data. Some of these compounds have results that are not shown, active ones among them. Active and inactive are the calls of the source.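 The calls were made as follows: active = maximum activity change below -70%; inconclusive = maximum activity change from -70% to -50%; inactive = maximum activity change above -50%.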

These molecules were tested on Potassium voltage-gated channel subfamily H member 2, brain isoform KCNH2 3.1 (human) (assay: qHTS for Inhibitors of KCHN2 3.1: Mutant qHTS). Details: U2OS KCNH2 3.1, thallium flux FluxOr; hits give low values.
Text: Many antipsychotic drugs that inhibit the neurotransmitter dopamine also bind to hERG1 channel which might help explain their antipsychotic activity but also produces cardiac side effects. The discovery of the novel KCNH2 3.1 isoform offers a potential new target for the development of antipsychotic drugs without cardiac side effects. This proposal will use a high throughput thallium flux assay developed for KCNH2 to screen compounds that modulate the activity of KCNH2 3.1. The wild type KCNH2 channel will also be screened in parallel to help define the selective modulators of this KCNH2 3.1 potassium channel. The resulting compounds will be validated in electrophysiology experiments. The availability of animal models will allow future testing in vivo for effects on memory and other aspects of animal physiology linked with psychosis. NIH Chemical Genomics Center [NCGC] NIH Molecular Libraries Probe Centers Network [MLPCN] MLPCN Grant: MH096539 Assay Submitter (PI): James Barrow, Johns Hopkins University, Lieber Institute for Brain Development
U2OS cells were resuspended in cell media containing 10% fetal calf serum (FCS) at a concentration of 2 million cells / mL. The solution was treated with the mutant (3.1) virus at 1.77 x 10^8 / mL and allowed to incubate at room temperature in the dark. After 4 hours of incubation, DMEM + 10% fetal bovine serum (FBS) was added to the cell solution. Three microliter was then dispensed into a 1536 tissue culture treated black assay plates which were incubated overnight at 37 C. Two microliter of loading buffer (HBSS + HEPES + Red40 dye quencher + FluxOr dye) was added and the assay plates were incubated for 45 min at room temperature in the dark. […] A stimulation buffer was added to the plate and the second kinetic read (2 min) was obtained. The rate constant was calculated from the kinetic reads and normalized to the positive and negative DMSO controls.
% is scaled to controls: 0 for no effect and ±100 for the full control effect.

| SMILES | activity change |
| --- | --- |
| CCN(CC)CC(C)C(C)OC(=O)C(O)(c1ccccc1)c1ccccc1 (stereo unspecified) | inactive: -5.07% |
| COc1cc(SC)ccc1C(=O)NCC1(N(C)C)CCCCC1 | inactive: 0.45% |
| CC(C)N1C(=O)CC2(CCN(CCOC(=O)C(O)(c3ccccc3)c3ccccc3)CC2)C1=O | inactive: 2.68% |
| Cc1ccc(C(=O)NCC2(N3CCCCC3)CCCCC2)cc1 | inactive: -3.44% |
| O=C(NCC1(N2CCCCC2)CCCCC1)c1cc([N+](=O)[O-])ccc1Cl | inactive: 1.97% |
| CN1[C@@H]2CC[C@H]1CC(OC(=O)C(O)(c1ccccc1)c1ccccc1)C2 (stereo partly specified) | inactive: 7.95% |
| C=CCN1CCN(CCOC(=O)C(O)(c2ccccc2)c2ccccc2)CC1 | inactive: 7.06% |
| O=C(NCC1(N2CCCCC2)CCCCC1)c1cc(F)c(F)cc1Cl | inactive: 0.402% |
| COc1ccc(C(=O)NCC2(N(C)C)CCCCC2)cc1 | inactive: -1.53% |
| CCN1CCCC(OC(=O)C2(O)c3ccccc3C=Cc3ccccc32)C1 (stereo unspecified) | inactive: 1.01% |
| Cc1cc(C(=O)NCC2(N3CCCCC3)CCCCC2)ccc1[N+](=O)[O-] | inactive: -21% |
| O=C(NCC1(N2CCCCC2)CCCCC1)c1cccc(Br)c1 | inactive: -5.26% |
| Cc1ccccc1C(=O)NCC1(N2CCCCC2)CCCCC1 | inactive: -8.62% |
| CN(C)c1ccc(C(=O)NCC2(N(C)C)CCCCC2)cc1 | inactive: -0.888% |
| CN(C)C1CCCC1OC(=O)C(O)(c1ccccc1)c1ccccc1 (stereo unspecified) | inactive: 9.95% |
| COc1cccc(C(=O)NCC2(N3CCCCC3)CCCCC2)c1 | inactive: 20.5% |
| COc1ccc(Cl)cc1C(=O)NCC1(N(C)C)CCCCC1 | inactive: -6.13% |
| O=C(NCC1(N2CCCCC2)CCCCC1)c1cccc(Cl)c1 | inactive: 7.12% |
| CN(C)C1(CNC(=O)c2ccc(Br)cc2)CCCCC1 | inactive: 3.06% |
| COc1cc(C(=O)NCC2(N(C)C)CCCCC2)c([N+](=O)[O-])cc1OC | inactive: 7.72% |
| C=C(C)C#CC(O)(C(=O)OC1CCN(C)CC1)c1ccccc1 (stereo unspecified) | inactive: -0.584% |
| COc1ccc(Br)c(C(=O)NCC2(N3CCCCC3)CCCCC2)c1 | inactive: -6.81% |
| CC(C)Oc1ccc(C(=O)NCC2(N(C)C)CCCCC2)cc1 | inactive: -7.24% |
| O=C(OCCN1CCCC1)C(O)(c1ccccc1)c1ccccc1 | inactive: 5.7% |
| CN(C)c1cccc(C(=O)NCC2(N(C)C)CCCCC2)c1 | inactive: -10.4% |
| O=C(OC1CN2CCC1CC2)C(CO)(c1ccccc1)c1ccccc1 (stereo unspecified) | inactive: -18.1% |
